The values below come from US20130345205A1, “SUBSTITUTED BICYCLIC ARALKYL PYRAZOLE LACTAM ANALOGS AS ALLOSTERIC MODULATORS OF MGLUR5 RECEPTORS” (Vanderbilt University, priority 2012, published 2013).

Amino acid sequences for entries named in this document (tags omitted). Residues count along the entry.
UniProt P41594, 21-1180 isoform 2 limits assumed: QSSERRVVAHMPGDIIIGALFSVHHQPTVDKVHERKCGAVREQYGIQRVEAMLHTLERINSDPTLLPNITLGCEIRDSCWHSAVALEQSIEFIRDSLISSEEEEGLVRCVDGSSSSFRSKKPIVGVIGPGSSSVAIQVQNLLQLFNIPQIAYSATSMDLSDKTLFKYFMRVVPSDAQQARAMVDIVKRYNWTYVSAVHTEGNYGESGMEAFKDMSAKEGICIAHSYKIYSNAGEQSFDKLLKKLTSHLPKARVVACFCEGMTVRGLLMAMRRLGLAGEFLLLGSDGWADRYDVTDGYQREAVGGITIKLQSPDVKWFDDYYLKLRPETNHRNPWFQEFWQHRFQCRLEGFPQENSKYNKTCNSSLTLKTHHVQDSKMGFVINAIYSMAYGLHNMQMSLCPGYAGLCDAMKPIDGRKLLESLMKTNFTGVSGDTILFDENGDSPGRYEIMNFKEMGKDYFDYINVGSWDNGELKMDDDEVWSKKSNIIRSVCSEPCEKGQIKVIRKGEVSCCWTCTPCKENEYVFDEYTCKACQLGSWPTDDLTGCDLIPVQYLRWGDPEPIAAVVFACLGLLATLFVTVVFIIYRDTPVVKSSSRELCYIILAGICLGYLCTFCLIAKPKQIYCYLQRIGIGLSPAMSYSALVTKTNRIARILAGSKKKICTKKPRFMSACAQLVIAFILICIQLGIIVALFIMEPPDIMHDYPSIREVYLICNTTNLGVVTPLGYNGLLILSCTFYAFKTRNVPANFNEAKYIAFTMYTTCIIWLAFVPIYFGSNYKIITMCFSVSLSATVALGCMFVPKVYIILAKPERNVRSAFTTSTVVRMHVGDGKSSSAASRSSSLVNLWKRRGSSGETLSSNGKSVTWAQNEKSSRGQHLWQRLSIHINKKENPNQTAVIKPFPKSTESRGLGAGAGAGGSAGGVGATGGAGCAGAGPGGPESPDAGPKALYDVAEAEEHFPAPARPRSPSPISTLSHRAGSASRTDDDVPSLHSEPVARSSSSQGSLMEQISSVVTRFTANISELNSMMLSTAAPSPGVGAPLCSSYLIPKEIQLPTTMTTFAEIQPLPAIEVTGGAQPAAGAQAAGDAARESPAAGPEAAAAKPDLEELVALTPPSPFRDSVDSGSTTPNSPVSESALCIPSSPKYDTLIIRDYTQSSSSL

The experiment has as its target human mGluR5 (Homo sapiens, UniProt P41594). Briefly: Cell-based functional Ca2+ mobilization assay (FDSS), potentiation of glutamate EC20 response. To be noted: H10H cell-line (HEK, recombinant human mGluR5); for Emax (%): glutamate EC20, maximum average response at a single concentration, percent of maximal glutamate response; for pEC50: positive allosteric modulation in presence of glutamate EC20, concentration in mol/L. An excerpt:
Human mGluR5a cDNA in pCMV6-XL6 mammalian expression plasmid was purchased from OriGene Technologies, Inc. (catalogue number SC326357) and subcloned into pcDNA3.1(−). Human embryonic kidney (HEK) 293A cells were then transfected with human mGluR5a pcDNA3.1(−) using LipofectAmine2000 (Invitrogen) and monoclones were selected and tested for functional response using a Ca^2+ mobilization assay. Monoclones were named for the species (“H” for human) plus the location on the plate (e.g. “10H”).
HEK cells transfected with the human mGluR5a receptor (H10H or H12H cell line) were plated at 15,000 cells/well in clear-bottomed poly-D-lysine-coated assay plates (BD Falcon) in glutamate-glutamine-free growth medium and incubated overnight at 37° C. and 5% CO2. Cell-lines used were either the H10H or H12H cell-lines expressing the human mGluR5 receptor. The following day, the growth medium was removed and the cells were washed with assay buffer containing 1× Hank's balanced salt solution (Invitrogen, Carlsbad, Calif.), 20 mM HEPES, 2.5 mM probenecid, pH 7.4 and left with 20 μL of this reagent. Following this step, the cells were loaded with calcium indicator dye, fluo-4 AM, to a final concentration of 2 μM and incubated for 40-45 min at 37° C. The dye solution was removed and replaced with assay buffer. Cell plates were held for 10-15 min at room temperature and were then loaded into the Functional Drug Screening System 6000 (FDSS 6000, Hamamatsu, Japan).
After establishment of a fluorescence baseline for about 3 seconds, the compounds of the present invention were added to the cells, and the response in cells was measured. 2.3 minutes later an EC20 concentration of the mGluR5 receptor agonist glutamate was added to the cells, and the response of the cells was measured for about 1.7 minutes. All test compounds were dissolved and diluted to a concentration of 10 mM in 100% DMSO and then serially diluted into assay buffer for a 2× stock solution in 0.6% DMSO; stock compounds were then added to the assay for a final DMSO concentration of 0.3% after the first addition to the assay well. Calcium fluorescence measures were recorded as fold over basal fluorescence; raw data was then normalized to the maximal response to glutamate. Potentiation of the agonist response of the mGluR5 receptor in the present invention was observed as an increase in response to submaximal concentrations of glutamate in the presence of compound compared to the response to glutamate in the absence of compound.
The concentration-response curves of compounds of the present invention, obtained in the presence of EC20 of mGluR5 receptor agonist glutamate to determine positive allosteric modulation, were generated using Microsoft Excel with IDBS XLFit add-ins. The raw data file containing all time points was used as the data source in the analysis template. This was saved by the FDSS as a tab-delimited text file. Data were normalized using a static ratio function (F/F0) for each measurement of the total 350 values per well divided by each well's initial value. Data was then reduced as to peak amplitudes (Max-Initial Min) using a time range that starts approximately 1 second after the glutamate EC20 addition and continues for approximately 40 seconds. This is sufficient time to capture the peak amplitude of the cellular Calcium response. Individual amplitudes were expressed as % EMax by multiplying each amplitude by 100 and then dividing the product by the mean of the amplitudes derived from the glutamate ECMax-treated wells. pEC50 values for test compounds were generated by fitting the normalized values versus the log of the test compound concentration (in mol/L) using a 4 parameter logistic equation where none of the parameters were fixed. Each of the three values collected at each concentration of test compound were weighted evenly. Individual values falling outside the 95% prediction limits of the curve fit were automatically excluded from the fit. […]
Background: Calcium flux is commonly read through the fluorescence of an indicator in the cells.

On to `Cc1cccc(OCc2cc3n(n2)CCN(Cc2ccccc2)C3=O)c1`, for which the “Emax (%)” value stood at 42%.

The term pEC50 denotes −log10 of the EC50, conventionally taken in molar units. Consider `O=C1c2cc(COc3ccccc3)nn2CCN1Cc1cc(F)cc(F)c1`, for which the “Emax (%)” value stood at 68% and the pEC50 is on record as 6.99.

`COc1nccnc1CN1CCn2nc(COc3ccccc3)cc2C1=O`: the “Emax (%)” value was 75.5% and the pEC50 came to 6.56.

As for `COc1ccc(CN2CCn3nc(COc4ccccc4)cc3C2=O)cc1F`, the “Emax (%)” value turned out to be 68.5%.

`O=C1c2cc(COc3ccc(F)cc3)nn2CCN1Cc1ccccc1`: the “Emax (%)” value is on record as 64% and the pEC50 came out at 6.96.

Turning to `CC1CN(Cc2ccccc2)C(=O)c2cc(COc3ccccc3)nn21` (single isomer, unassigned) [Example B14], the “Emax (%)” value turned out to be 57% and the pEC50 was determined as 6.94.

As for `CC(c1ccncc1)N1CCn2nc(COc3ccccc3)cc2C1=O` (stereo not shown), the “Emax (%)” value came to 59% and the pEC50 was 5.74.

For `CC(c1ccccn1)N1CCn2nc(COc3ccccc3)cc2C1=O` (stereo not shown), the “Emax (%)” value is 58% and the pEC50 amounted to 5.79.

On to `COc1cc(F)cc(CN2CCn3nc(COc4ccccc4)cc3C2=O)c1`, for which the “Emax (%)” value worked out at 71.5% and the pEC50 was found to be 6.76.

With `C[C@@H](c1ccccc1)N1CCn2nc(COc3ccccc3)cc2C1=O`, the “Emax (%)” value stood at 53% and the pEC50 was 6.65.

Take `O=C1c2cc(COc3ccccc3)nn2CCN1Cc1ccc(F)cc1`: the “Emax (%)” value came out at 73% and the pEC50 turned out to be 7.03.

In the case of `Cc1cccnc1CN1CCn2nc(COc3ccccc3)cc2C1=O`, the “Emax (%)” value is 73.5% and the pEC50 stood at 6.27.

For `CC1CN(Cc2ccccc2)C(=O)c2cc(COc3ccc(F)cc3)nn21` (single isomer, unassigned) [Example B54], the “Emax (%)” value stood at 66.5%.

Take `Cc1ccnc(CN2CCn3nc(COc4ccccc4)cc3C2=O)c1`: the “Emax (%)” value was 69% and the pEC50 was found to be 6.00.

With `COc1ccnc(CN2CCn3nc(COc4ccccc4)cc3C2=O)n1`, the “Emax (%)” value was 64.5%.

As to `C[C@@H]1Cn2nc(COc3ccccc3)cc2C(=O)N1Cc1ccccc1`, the “Emax (%)” value is listed as 75.5% and the pEC50 was 7.07.

Turning to `O=C1c2cc(COc3ccccc3)nn2CCN1Cc1c(F)cccc1F`, the “Emax (%)” value is reported as 64% and the negative-log EC50 (pEC50) was 6.89.

As to `C[C@@H]1Cn2nc(COc3ccc(F)cc3)cc2C(=O)N1Cc1ccccc1`, the “Emax (%)” value was 73% and the pEC50 is 6.89.

For the compound `CC1CN(Cc2ccccc2)C(=O)c2cc(COc3ccccn3)nn21` (single isomer, unassigned), the “Emax (%)” value was 59% and the pEC50 is on record as 6.51.

With `Cc1noc(C)c1CN1CCn2nc(COc3ccccc3)cc2C1=O`, the “Emax (%)” value was determined as 55% and the pEC50 is on record as 5.68.

Turning to `C[C@@H](c1ccc(F)cc1)N1CCn2nc(COc3ccccc3)cc2C1=O`, the “Emax (%)” value was 41% and the pEC50 amounted to 6.45.

`COc1nccc(CN2CCn3nc(COc4ccccc4)cc3C2=O)n1`: the “Emax (%)” value came out at 65.5% and the pEC50 is listed as 6.01.
